Laboratory results as given in US4910193A, “Treatment of gastrointestinal disorders” (Sandoz Ltd., priority 1987, dated 1990).

Amino acid sequences for entries named in this document (tags omitted). Residues count along the entry.
UniProt O70212, 20-490: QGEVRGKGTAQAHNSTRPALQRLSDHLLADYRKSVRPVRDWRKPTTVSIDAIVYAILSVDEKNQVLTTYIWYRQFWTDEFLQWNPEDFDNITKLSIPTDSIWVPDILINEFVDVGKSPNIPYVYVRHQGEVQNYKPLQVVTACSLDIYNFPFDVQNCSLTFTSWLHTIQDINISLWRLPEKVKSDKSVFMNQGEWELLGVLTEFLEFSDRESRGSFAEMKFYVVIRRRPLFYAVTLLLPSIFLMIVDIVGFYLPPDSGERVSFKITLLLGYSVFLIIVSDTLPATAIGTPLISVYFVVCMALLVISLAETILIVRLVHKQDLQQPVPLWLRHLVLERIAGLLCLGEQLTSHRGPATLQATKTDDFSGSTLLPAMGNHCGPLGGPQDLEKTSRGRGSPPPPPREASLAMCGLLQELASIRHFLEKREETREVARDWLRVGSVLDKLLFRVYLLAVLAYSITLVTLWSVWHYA

Biological target: T1, low affinity 5-HT receptor (Cavia porcellus, UniProt O70212)
T1 construct: The isolated longitudinal muscle of the guinea pig ileum with its adhering myenteric plexus; from tissue; host or cells: longitudinal muscle strips of ileum with myenteric plexus, male guinea pigs
Test: Isolated longitudinal muscle of guinea pig ileum, 5-HT contraction, low affinity receptor
Details: agonist, in words

## NCCc1c[nH]c2ccc(O)cc12 [Compound 5-HT, reference compound]
  contractile effect of 5-HT on longitudinal muscle strip: concentration-dependent contractile effect
